From patent publication US20220388992A1, “JAK INHIBITOR COMPOUND AND USE THEREOF” (priority 2019, published 2022)

Target: T1, TYK2 (Homo sapiens, UniProt P29597)
T1 sequence (P29597 871-1187 limits assumed): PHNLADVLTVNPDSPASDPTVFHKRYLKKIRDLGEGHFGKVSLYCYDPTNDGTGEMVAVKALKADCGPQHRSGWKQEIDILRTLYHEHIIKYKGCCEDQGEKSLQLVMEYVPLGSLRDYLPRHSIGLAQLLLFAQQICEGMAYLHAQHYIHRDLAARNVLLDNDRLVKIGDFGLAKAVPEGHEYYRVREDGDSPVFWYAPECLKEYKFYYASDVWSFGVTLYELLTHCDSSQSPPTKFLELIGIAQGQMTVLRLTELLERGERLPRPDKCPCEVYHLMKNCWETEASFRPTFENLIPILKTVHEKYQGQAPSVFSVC
Test: TYK2 kinase inhibition, ADP-Glo luminescence assay
Type: biochemical
Text: A drug screening system based on kinases JAK1, JAK2, JAK3, and TYK2 was used to detect the inhibitory ability of small molecule compounds on kinase activity. A kinase undergoes an enzymatic reaction with its substrates IRS 1, IGF1Rtide, and Poly (4:1 Glu, Tyr), consuming ATP to produce ADP, wherein the ADP-Glo reagent and luminescence method were used to detect the amount of the product to reflect the activity of the kinase. 2.1 Experimental Materials and Instruments
a) Dilute a compound solution to be tested by 5 times with 100% DMSO. […] The final concentration of DMSO is 0.5%. d) Transfer 4 μL of ADP-Glo to the 384-well reaction plate, centrifuge it at 1000 rpm/min for 1 min, and incubate it at 25° C. for 40 min. e) Transfer 8 μL of Detection solution to the 384-well reaction plate, centrifuge it at 1000 rpm/min for 1 min, and incubate it at 25° C. for 40 min. f) Use Biotek multi-function plate reader to read the RLU (Relative luminescence unit) signal. The signal intensity is used to characterize the degree of kinase activity.
IC50 (half inhibitory concentration) of the compound can be obtained using the following nonlinear fitting formula:
Y=Bottom+(Top−Bottom)/(1+10^((Log IC50−X)*HillSlope))

## O=C(Nc1nc2cccc(-c3ccc(CN4CCS(=O)(=O)CC4)cc3)n2n1)C1CC1 [Filgotinib, reference compound]
  IC50: 293 nM
